Experimental data taken from ChEMBL document CHEMBL1123262, “Nonquaternary cholinesterase reactivators. 3. 3(5)-Substituted 1,2,4-oxadiazol-5(3)-aldoximes and 1,2,4-oxadiazole-5(3)-thiocarbohydroximates as reactivators of organophosphonate-inhibited eel and human acetylcholinesterase in vitro” (1986).
Values joined by “and” are separate entries in the source; they are usually repeats but may differ in a detail not shown here. Identical values can stand only once.

Chains of the proteins cited; added tags and fusions are not shown. Residues count along the entry.
UniProt O42275, 24-633 limits assumed: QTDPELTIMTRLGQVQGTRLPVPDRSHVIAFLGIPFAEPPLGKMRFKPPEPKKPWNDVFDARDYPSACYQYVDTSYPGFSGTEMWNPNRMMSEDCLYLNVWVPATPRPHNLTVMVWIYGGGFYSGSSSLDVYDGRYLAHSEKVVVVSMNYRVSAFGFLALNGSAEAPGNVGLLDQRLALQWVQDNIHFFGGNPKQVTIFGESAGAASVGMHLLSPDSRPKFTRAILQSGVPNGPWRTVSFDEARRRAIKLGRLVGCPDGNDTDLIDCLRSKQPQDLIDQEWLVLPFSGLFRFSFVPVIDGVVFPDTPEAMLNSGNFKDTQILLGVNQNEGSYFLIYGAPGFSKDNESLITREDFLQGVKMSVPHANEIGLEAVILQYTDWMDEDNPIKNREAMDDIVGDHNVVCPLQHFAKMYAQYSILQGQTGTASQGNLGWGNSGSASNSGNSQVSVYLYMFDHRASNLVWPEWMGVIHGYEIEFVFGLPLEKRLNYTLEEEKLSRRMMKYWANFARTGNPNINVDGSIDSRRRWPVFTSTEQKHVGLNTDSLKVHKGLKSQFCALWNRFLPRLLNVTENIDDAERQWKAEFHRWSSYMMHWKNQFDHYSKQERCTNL
UniProt P22303, 32-614 limits assumed: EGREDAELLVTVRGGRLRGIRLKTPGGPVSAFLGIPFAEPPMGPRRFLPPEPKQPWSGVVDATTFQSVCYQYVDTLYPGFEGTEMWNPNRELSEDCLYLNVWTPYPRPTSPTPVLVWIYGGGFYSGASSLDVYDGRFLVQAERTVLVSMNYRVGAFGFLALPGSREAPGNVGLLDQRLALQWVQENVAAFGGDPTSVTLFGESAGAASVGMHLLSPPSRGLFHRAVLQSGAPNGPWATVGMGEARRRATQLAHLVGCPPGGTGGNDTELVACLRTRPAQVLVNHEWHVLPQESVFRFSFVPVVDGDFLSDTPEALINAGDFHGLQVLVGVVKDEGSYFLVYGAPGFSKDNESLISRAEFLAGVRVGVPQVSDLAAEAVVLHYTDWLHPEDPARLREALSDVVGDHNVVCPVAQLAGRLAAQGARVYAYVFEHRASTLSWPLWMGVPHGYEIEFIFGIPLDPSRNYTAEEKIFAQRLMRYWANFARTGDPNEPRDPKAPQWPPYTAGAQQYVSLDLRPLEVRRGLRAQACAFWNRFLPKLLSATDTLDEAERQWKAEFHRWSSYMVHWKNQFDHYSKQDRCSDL

Assays:
[1] = Compound as tested for the hydroxyimine methyl acid dissociation constant (pKa)
[2] = Compound was tested for the ratio of octanol / buffer partition coefficient for 0.1M, pH 7.6 phosphate buffer; settings: octanol/water
[3] = target: T1, Acetylcholinesterase (Electrophorus electricus, UniProt O42275); assay: In vitro reversible inhibition of eel acetylcholinesterase.
[4] = target: T2, Acetylcholinesterase (Homo sapiens, UniProt P22303); assay: Reactivation of human acetylcholinesterase
[5] = target: T1, Acetylcholinesterase; assay: Compound was tested for the concentration required for reversible inhibition of eel acetylcholinesterase
[6] = target: T2, Acetylcholinesterase; assay: Compound was tested for the concentration required for reversible inhibition of human acetylcholinesterase.

O/N=C/c1nc(Cc2ccccc2)no1
pKa [1]: 7.94 | logD [2]: 2.18

CCN(CC)CCS/C(=N\O)c1nc(-c2cccc3ccccc23)no1
pKa [1]: 6.5 | IC50 [3]: 1.3 µM | logD [2]: 2.92

Cc1noc(/C=N\O)n1
pKa [1]: 8.6

CCN(CC)CCS/C(=N\O)c1nc(-c2ccccc2)no1
IC50 [4]: 6 µM | pKa [1]: 6.32 | IC50 [3]: 7.5 µM | logD [2]: 1.78

CCN(CC)CCS/C(=N\O)c1nc(C(C)(C)C)no1
pKa [1]: 6.61 | IC50 [3]: 99 µM | logD [2]: 1.16

CCN(CC)CCS/C(=N\O)c1nc(Cc2ccccc2)no1
IC50 [4]: 30 µM | pKa [1]: 6.19 | IC50 [3]: 55 µM | logD [2]: 1.28

CCN(CC)CC/N=C(\NO)c1nc(-c2ccccc2)no1
pKa [1]: 9.85

CCCCCCCCc1noc(/C(=N/O)SCCN(CC)CC)n1
pKa [1]: 6.34 | logD [2]: > 3 | IC50 [5]: 1.4 µM | IC50 [6]: 1 µM

O/N=C/c1nc(-c2cccs2)no1
pKa [1]: 8.03 | logD [2]: 2.38

CCN(CC)CCS/C(=N\O)c1nc(C)no1
IC50 [4]: 90 µM | pKa [1]: 6.32 | logD [2]: -0.41

CC(C)(C)c1noc(/C=N/O)n1
pKa [1]: 7.91 | logD [2]: 2.03

Cc1noc(/C=N/O)n1
pKa [1]: 8.11 | logD [2]: 0.47

O/N=C/c1nc(-c2ccccc2)no1
pKa [1]: 7.94 and 8.12 | logD [2]: 2.61 and 2.33

CCCCCCCCc1noc(/C=N/O)n1
pKa [1]: 8.22 | logD [2]: 3

O/N=C/c1nc(-c2cccc3ccccc23)no1
pKa [1]: 8.05 | logD [2]: > 3

O/N=C/c1nc(-c2ccncc2)no1
pKa [1]: 8

CCN(CC)CCS/C(=N\O)c1nc(-c2ccccc2)no1.Cl
pKa [1]: 7.36 | logD [2]: 1.83
